Earlier results on six substances are cited in patent publication US11607432B2, “Probiotic compositions containing clostridiales for inhibiting inflammation” (Evelo Biosciences, Inc., priority 2014, dated 2023).

For the data set the following is noted: Table 1; NIAID priority pathogen category, OP or N; cited from earlier work.

With Clostridium celatum, the “Pathogen Status” value is “N”.
Regarding Parabacteroides distasonis, the “Pathogen Status” value is “N”.
As to Clostridium bartlettii, the “Pathogen Status” value was “N”.
In the case of Clostridium bolteae, the “Pathogen Status” value is reported as “N”.
For Clostridium symbiosum, the “Pathogen Status” value is “N”.
In the case of Clostridium clostridioforme, the “Pathogen Status” value was “N”.
